Measured values published in ChEMBL document CHEMBL4725490, “Decreasing HepG2 Cytotoxicity by Lowering the Lipophilicity of Benzo[d]oxazolephosphinate Ester Utrophin Modulators” (ACS Med Chem Lett, 2020).

Assay: Modulation of human utrophinA expressed in mouse H2K-mdx utrnA-luc cells assessed as upregulation of utrophin production after 24 hrs by luciferase reporter gene assay

CCP(=O)(OC)c1ccc2oc(-c3ccc(F)cc3)nc2c1 (stereo unspecified)
EC50: 244 nM
